Data: paper PMC5864910, “Mutacin 1140 Lantibiotic Variants Are Efficacious Against Clostridium difficile Infection” (Frontiers in Microbiology, 2018)

Amino acid sequences for entries named in this document (tags omitted). A change or cut given only in a name is not applied to a line headed by its entry.
UniProt Q12809: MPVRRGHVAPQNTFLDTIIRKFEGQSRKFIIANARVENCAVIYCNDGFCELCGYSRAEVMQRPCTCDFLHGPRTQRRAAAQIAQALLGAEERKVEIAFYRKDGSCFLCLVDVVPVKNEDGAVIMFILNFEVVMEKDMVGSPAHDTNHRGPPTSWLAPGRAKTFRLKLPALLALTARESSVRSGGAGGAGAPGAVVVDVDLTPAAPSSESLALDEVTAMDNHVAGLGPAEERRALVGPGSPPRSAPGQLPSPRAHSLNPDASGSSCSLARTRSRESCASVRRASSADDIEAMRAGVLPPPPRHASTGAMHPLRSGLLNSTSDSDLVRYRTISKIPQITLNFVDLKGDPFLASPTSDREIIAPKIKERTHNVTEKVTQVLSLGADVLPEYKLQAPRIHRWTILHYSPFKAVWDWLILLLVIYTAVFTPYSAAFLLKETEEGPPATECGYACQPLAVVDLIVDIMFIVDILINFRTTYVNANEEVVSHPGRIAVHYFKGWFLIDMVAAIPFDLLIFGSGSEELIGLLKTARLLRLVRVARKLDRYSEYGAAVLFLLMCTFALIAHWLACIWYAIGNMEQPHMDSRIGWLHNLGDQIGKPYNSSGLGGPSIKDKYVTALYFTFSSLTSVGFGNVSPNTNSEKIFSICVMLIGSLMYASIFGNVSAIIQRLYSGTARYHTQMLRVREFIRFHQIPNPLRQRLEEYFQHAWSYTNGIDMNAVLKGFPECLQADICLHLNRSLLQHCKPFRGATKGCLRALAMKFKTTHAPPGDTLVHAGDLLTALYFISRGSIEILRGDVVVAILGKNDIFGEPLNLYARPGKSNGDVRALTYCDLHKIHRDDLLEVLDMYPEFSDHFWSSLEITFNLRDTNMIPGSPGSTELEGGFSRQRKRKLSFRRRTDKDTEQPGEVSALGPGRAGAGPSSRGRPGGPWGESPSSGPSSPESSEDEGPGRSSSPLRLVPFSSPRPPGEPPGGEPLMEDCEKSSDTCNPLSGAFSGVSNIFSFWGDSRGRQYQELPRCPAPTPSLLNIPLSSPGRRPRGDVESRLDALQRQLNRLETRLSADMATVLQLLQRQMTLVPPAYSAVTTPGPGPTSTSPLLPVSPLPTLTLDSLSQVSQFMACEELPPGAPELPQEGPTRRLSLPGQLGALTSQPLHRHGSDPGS

What was measured:
Nav Channel = assay: Safety Screen 44: Nav Channel; assay type: binding, human
[1] = tested on: HepG2 human hepatocellular carcinoma cells; settings: HepG2 cytotoxicity
BZD (central) = assay: Safety Screen 44: BZD (central); assay type: binding, human
Ca2+ Channel = assay: Safety Screen 44: Ca2+ Channel; assay type: binding, human
[2] = tested on: NMDA ion channel receptor; assay: Safety Screen 44: NMDA; assay type: binding, human; settings: […]
Kv Channel = assay: Safety Screen 44: Kv Channel; assay type: binding, human
hERG = hERG (Homo sapiens, UniProt Q12809); settings: Safety Screen 44

Structure (SMILES)	Cerep SafetyScreen 44 % Inhibition Nav Channel (Nav Channel)	HepG2 EC50 [1]	Cerep SafetyScreen 44 % Inhibition BZD (central) (BZD (central))	Cerep SafetyScreen 44 % Inhibition Ca2+ Channel (Ca2+ Channel)	Cerep SafetyScreen 44 % Inhibition NMDA [2]	Cerep SafetyScreen 44 % Inhibition Kv Channel (Kv Channel)	Minimum Inhibitory Concentration Mycobacterium phlei (Mycobacterium phlei)	hERG hit (hERG)
C=C1NC(=O)[C@H](Cc2c[nH]c3ccccc23)NC(=O)[C@H](NC(=O)[C@H](CCCCN)NC(=O)[C@@H](N)Cc2ccccc2)CSC[C@@H](C(=O)N[C@H]2C(=O)N3CCC[C@H]3C(=O)NCC(=O)N[C@H](C(=O)N[C@@H](C)C(=O)N[C@@H](CCCNC(=N)N)C(=O)N/C(=C\C)C(=O)N[C@@H](CC(N)=O)C(=O)N[C@@H]3CSC[C@@H]4NC(=O)[C@H](Cc5ccc(O)cc5)NC(=O)[C@@H](CS/C=C\NC4=O)NC(=O)[C@H](CC(N)=O)NC(=O)[C@H](Cc4ccccc4)NC3=O)CS[C@H]2C)NC(=O)[C@H](CC(C)C)NC1=O [G15N]	17%	584 µg/mL	-23%	-10%	13%	-3%	4 µg/mL	
C=C1NC(=O)[C@H](Cc2c[nH]c3ccccc23)NC(=O)[C@H](NC(=O)[C@H](CCCCN)NC(=O)[C@@H](N)Cc2ccccc2)CSC[C@@H](C(=O)N[C@H]2C(=O)N3CCC[C@H]3C(=O)NCC(=O)N[C@H](C(=O)N[C@@H](C)C(=O)N[C@@H](CCCNC(=N)N)C(=O)N/C(=C\C)C(=O)N[C@@H](CO)C(=O)N[C@@H]3CSC[C@@H]4NC(=O)[C@H](Cc5ccc(O)cc5)NC(=O)[C@@H](CS/C=C\NC4=O)NC(=O)[C@H](CC(N)=O)NC(=O)[C@H](Cc4ccccc4)NC3=O)CS[C@H]2C)NC(=O)[C@H](CC(C)C)NC1=O [G15S]	-1%	397 µg/mL	-22%	-18%	1%	3%	4 µg/mL	
C=C1NC(=O)[C@H](Cc2c[nH]c3ccccc23)NC(=O)[C@H](NC(=O)[C@H](CCCCN)NC(=O)[C@@H](N)Cc2ccccc2)CSC[C@@H](C(=O)N[C@H]2C(=O)N3CCC[C@H]3C(=O)NCC(=O)N[C@H](C(=O)N[C@@H](C)C(=O)N[C@@H](CCCNC(=N)N)C(=O)N/C(=C\C)C(=O)NCC(=O)N[C@@H]3CSC[C@@H]4NC(=O)[C@H](Cc5ccc(O)cc5)NC(=O)[C@@H](CS/C=C\NC4=O)NC(=O)[C@H](CC(N)=O)NC(=O)[C@H](Cc4ccccc4)NC3=O)CS[C@H]2C)NC(=O)[C@H](C(C)C)NC1=O [L6V]	-12%	536 µg/mL	1%	-6%	24%	8%	2 µg/mL	
C=C1NC(=O)[C@H](Cc2c[nH]c3ccccc23)NC(=O)[C@H](NC(=O)[C@H](CCCCN)NC(=O)[C@@H](N)Cc2ccccc2)CSC[C@@H](C(=O)N[C@H]2C(=O)N3CCC[C@H]3C(=O)NCC(=O)N[C@H](C(=O)N[C@@H](C)C(=O)N[C@H](C(=O)N/C(=C\C)C(=O)NCC(=O)N[C@@H]3CSC[C@@H]4NC(=O)[C@H](Cc5ccc(O)cc5)NC(=O)[C@@H](CS/C=C\NC4=O)NC(=O)[C@H](CC(N)=O)NC(=O)[C@H](Cc4ccccc4)NC3=O)[C@@H](C)O)CS[C@H]2C)NC(=O)[C@H](CC(C)C)NC1=O [R13T]	1%		-27%	-20%	13%	-7%	8 µg/mL	
C/C=C(\NC(=O)[C@H](CCCNC(=N)N)NC(=O)[C@H](C)NC(=O)[C@@H]1CS[C@@H](C)[C@@H](NC(=O)[C@@H]2CSC[C@@H](NC(=O)[C@H](CCCCN)NC(=O)[C@@H](N)Cc3ccccc3)C(=O)N[C@@H](Cc3c[nH]c4ccccc34)C(=O)N[C@@H](C)C(=O)N[C@@H](CC(C)C)C(=O)N2)C(=O)N2CCC[C@H]2C(=O)NCC(=O)N1)C(=O)NCC(=O)N[C@@H]1CSC[C@@H]2NC(=O)[C@H](Cc3ccc(O)cc3)NC(=O)[C@@H](CS/C=C\NC2=O)NC(=O)[C@H](CC(N)=O)NC(=O)[C@H](Cc2ccccc2)NC1=O [Ser5Ala]								23%
